For test [1], the target named is T1, Mec1-Ddc2-S4 complex (budding yeast, UniProt P38111; Q04377, K263E | H382Y).
T1 construct: Mec1 (ATR homolog), budding yeast; expressed from pRS424-GAL-FLAG-MEC1; Ddc2 (ATRIP homolog), budding yeast, with the two ddc2-S4 substitutions; also called Mec1-Ddc2 complex containing Ddc2-S4 mutant; source: S. cerevisiae (KSC3218), overexpressed from the GAL promoter, purified (ANTI-FLAG-M2 agarose, Ni-NTA agarose); not shown: HA, N-terminal, kept
The experiment in a line: pull-down; streptavidin beads coated with biotinylated oligonucleotide bio-oligo(dN)80 (5 pmol), incubated with RPA (1 pmol) for 30 min, then with Mec1-Ddc2, Mec1-Ddc2-S4, MBP, MBP-Ddc2 or MBP-Ddc2-S4 (0.5 pmol) for 30 min; buffer B (20 mM Tris-HCl pH 7.5, 100 mM NaCl, 0.01% NP-40, 10% glycerol, 100 μg/ml BSA), 30°C; immunoblot of captured proteins. Particulars: both partners purified.

Test [2] addresses T2, Mec1-Ddc2 complex (budding yeast, UniProt P38111; Q04377).
T2 construct: Mec1 (ATR homolog), budding yeast; expressed from pRS424-GAL-FLAG-MEC1; Ddc2 (ATRIP homolog), budding yeast; also called ATR-ATRIP homolog; source: S. cerevisiae (KSC3218), overexpressed from the GAL promoter, purified (ANTI-FLAG-M2 agarose, Ni-NTA agarose); not shown: HA, N-terminal, kept; copies: 2 + 2
The experiment in a line: pull-down; Mec1-Ddc2 (0.5 pmol) and RPA (1 pmol) incubated with ANTI-FLAG-M2 agarose with or without bio-oligo(dN)80 (5 pmol); buffer B (20 mM Tris-HCl pH 7.5, 100 mM NaCl, 0.01% NP-40, 10% glycerol, 100 μg/ml BSA), 30 min, 30°C; immunoblot with anti-FLAG, anti-HA, anti-Rfa1. Particulars: both partners purified.

B1: Replication protein A (RPA), consisting of Rfa1, Rfa2 and Rfa3 (complex, budding yeast)
chain 1: MSSVQLSRGDFHSIFTNKQRYDNPTGGVYQVYNTRKSDGANSNRKNLIMISDGIYHMKALLRNQAASKFQSMELQRGDIIRVIIAEPAIVRERKKYVLLVDDFELVQSRADMVNQTSTFLDNYFSEHPNETLKDEDITDSGNVANQTNASNAGVPDMLHSNSNLNANERKFANENPNSQKTRPIFAIEQLSPYQNVWTIKARVSYKGEIKTWHNQRGDGKLFNVNFLDTSGEIRATAFNDFATKFNEILQEGKVYYVSKAKLQPAKPQFTNLTHPYELNLDRDTVIEECFDESNVPKTHFNFIKLDAIQNQEVNSNVDVLGIIQTINPHFELTSRAGKKFDRRDITIVDDSGFSISVGLWNQQALDFNLPEGSVAAIKGVRVTDFGGKSLSMGFSSTLIPNPEIPEAYALKGWYDSKGRNANFITLKQEPGMGGQSAASLTKFIAQRITIARAQAENLGRSEKGDFFSVKAAISFLKVDNFAYPACSNENCNKKVLEQPDGTWRCEKCDTNNARPNWRYILTISIIDETNQLWLTLFDDQAKQLLGVDANTLMSLKEEDPNEFTKITQSIQMNEYDFRIRAREDTYNDQSRIRYTVANLHSLNYRAEADYLADELSKALLA
chain 2: MATYQPYNEYSSVTGGGFENSESRPGSGESETNTRVNTLTPVTIKQILESKQDIQDGPFVSHNQELHHVCFVGVVRNITDHTANIFLTIEDGTGQIEVRKWSEDANDLAAGNDDSSGKGYGSQVAQQFEIGGYVKVFGALKEFGGKKNIQYAVIKPIDSFNEVLTHHLEVIKCHSIASGMMKQPLESASNNNGQSLFVKDDNDTSSGSSPLQRILEFCKKQCEGKDANSFAVPIPLISQSLNLDETTVRNCCTTLTDQGFIYPTFDDNNFFAL
chain 3: MASETPRVDPTEISNVNAPVFRIIAQIKSQPTESQLILQSPTISSKNGSEVEMITLNNIRVSMNKTFEIDSWYEFVCRNNDDGELGFLILDAVLCKFKENEDLSLNGVVALQRLCKKYPEIY
notes: Rfa1, subunit of budding yeast RPA; Rfa2, subunit of budding yeast RPA; Rfa3, subunit of budding yeast RPA; also called budding yeast RPA protein; source: purified as described [83]; copies: + +
Take B1: the binding result in test [1] and in test [2] was “binds” in each case.
